Structures are written as SMILES. The list shows a part of the results, in another mix than the full data. Calls of active or inactive are those of the source.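 Rule for the calls: active = mean replicate inhibition at least 50% and at least half of replicates individually reaching 50%; inconclusive = only one of the two criteria met; inactive = neither criterion met.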

Usually inhibition stands for the change of the read-out against control, counted positive when it falls.

This test is described as follows: blockers of twin-arginine translocation in E. coli – MC4100, TorA-mCherry reporter, fluorescence, single point, primary screen (AID 488895).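 Note: exported cargo escapes ClpAP degradation while cytoplasmic cargo is degraded and loses fluorescence; 0% = median of neutral control wells and 100% = median of NaSCN control wells.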 The conditions noted are these: E. coli MC4100 TorA-mCherry Tat export, at 10 µM, stronger effect = higher value.
Turning to `CCC(=O)N(c1ccccc1)C1(COC)CCN(CCn2nnn(CC)c2=O)CC1`, the inhibition was inactive: -7.63%.
In the case of `CCC(=O)N(c1ccccc1)C1(COC)CCN(CCc2cccs2)CC1`, the inhibition is inactive: -0.895%.

For the origin of these results see PubChem BioAssay AID488895 (Broad Institute, 2010).
